Antibody variant affinities, Ab-14 light chain, assay B

From the AlphaSeq antibody data of Li et al. 2023 (doi:10.1038/s41467-023-39022-2), copy in the FLAb collection.

Antigen: PDVDLGDISGINAS, a 14-residue peptide of the SARS-CoV-2 spike HR2 region.

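Designed CDR sequences, proposed from the first random library and measured here. Several design methods are mixed in this list. Affinity was read by AlphaSeq, a pooled yeast mating assay with surface-displayed partners. Mating (16 h, 30 °C) was followed by selection of diploids and sequencing of their barcodes. A regression on co-assayed BCL2-family reference pairs converts the normalised counts of each replicate to an apparent Kd. Mating was done six times.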

Ab-14 is the parent antibody, in scFv form: VH, then the linker GGGGSGGGGSGGGGS, then VL. The heavy chain is unchanged in all variants.
VH: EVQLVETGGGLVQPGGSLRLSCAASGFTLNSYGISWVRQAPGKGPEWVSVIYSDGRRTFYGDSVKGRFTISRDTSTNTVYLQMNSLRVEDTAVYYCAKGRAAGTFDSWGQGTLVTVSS
VL: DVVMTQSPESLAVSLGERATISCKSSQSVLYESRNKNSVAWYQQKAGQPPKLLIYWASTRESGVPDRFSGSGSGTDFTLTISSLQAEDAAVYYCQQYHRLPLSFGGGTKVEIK

Each variant's VL is given in full. Scale: log10 of Kd in nM, estimated from mating counts; low values are strong binders. Replicates are averaged; those with no signal do not enter the mean. A pair that was not seen in any replicate is written "nd"; this usually means weak binding, but a binder can also be missed. Nonspecific signal, from three strains lacking the peptide, appeared in 4% of pairings of all light chain designs, centred on 2.64 (5% of these signals below 1.59); values are not corrected for it. The range of this assay differs from that of the first round, and the authors advise against merging the two. The authors averaged sequences with at least three values out of six and counted those with two or fewer as poor binders.

{"VL": "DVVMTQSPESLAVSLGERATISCKSSQSFLYESRNDNSVAWYQQKAGQPPKLLIYWASTRESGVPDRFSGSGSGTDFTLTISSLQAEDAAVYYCQQTHRLPLAFGGGTKVEIK", "mean, log10 nM": "1.31", "replicates with signal": "1/6"}
{"VL": "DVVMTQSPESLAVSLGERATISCKSSQSVLDESCNKNSVAWYQQKAGQPPKLLIYDASQRVSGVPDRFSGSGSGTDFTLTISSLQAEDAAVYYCQQYARLPLSFGGGTKVEIK", "mean, log10 nM": "0.82", "replicates with signal": "6/6"}
{"VL": "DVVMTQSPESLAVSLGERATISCKLPQSQDYESRNKNSVAWYQQKAGQPPKLLIYNASTRESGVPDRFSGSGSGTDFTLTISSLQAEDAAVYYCQQYHRLPLSFGGGTKVEIK", "mean, log10 nM": "-0.37", "replicates with signal": "6/6"}
{"VL": "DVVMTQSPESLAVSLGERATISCKSSQSQLYESGNKNSVAWYQQKAGQPPKLLIYHASTRESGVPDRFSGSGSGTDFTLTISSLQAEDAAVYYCQQYHRLPLSFGGGTKVEIK", "mean, log10 nM": "2.12", "replicates with signal": "2/6"}
{"VL": "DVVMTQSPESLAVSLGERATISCKSSQSVEYESRNKNSVAWYQQKAGQPPKLLIYWASTRESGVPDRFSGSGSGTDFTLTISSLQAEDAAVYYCQQYHRLPPSFGGGTKVEIK", "mean, log10 nM": "nd", "replicates with signal": "0/6"}
{"VL": "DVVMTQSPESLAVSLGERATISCKFSQSDYYEGRNKNSVAWYQQKAGQPPKLLIYHASIRISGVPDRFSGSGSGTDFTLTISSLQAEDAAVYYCQQYHRLPLSFGGGTKVEIK", "mean, log10 nM": "0.92", "replicates with signal": "6/6"}
{"VL": "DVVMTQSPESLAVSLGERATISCQSSQSDPYEWRNKNSVAWYQQKAGQPPKLLIYWASTREPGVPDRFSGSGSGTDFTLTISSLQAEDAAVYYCQQYHRLPLEFGGGTKVEIK", "mean, log10 nM": "nd", "replicates with signal": "0/6"}
{"VL": "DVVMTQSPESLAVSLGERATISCTISQITSLFSQTTNNVAWYQQKAGQPPKLLIYEVSTREKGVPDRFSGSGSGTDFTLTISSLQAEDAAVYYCQQYDRLPLSFGGGTKVEIK", "mean, log10 nM": "0.95", "replicates with signal": "6/6"}
{"VL": "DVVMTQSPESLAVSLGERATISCKMNMAFQQDLMDEYSVAWYQQKAGQPPKLLIYDHMTAVTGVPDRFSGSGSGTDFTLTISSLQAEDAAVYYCQQYGRLPLSFGGGTKVEIK", "mean, log10 nM": "nd", "replicates with signal": "0/6"}
{"VL": "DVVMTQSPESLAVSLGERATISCKMENSNGYESRNKNSVAWYQQKAGQPPKLLIYNASTRMSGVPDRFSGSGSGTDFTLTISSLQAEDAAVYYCQQYHRLPLSFGGGTKVEIK", "mean, log10 nM": "0.21", "replicates with signal": "6/6"}
{"VL": "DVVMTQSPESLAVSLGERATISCNLNDSPMYAQIMKDAIAWYQQKAGQPPKLLIYQETQRNEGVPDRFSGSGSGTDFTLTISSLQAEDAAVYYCQQYAKLPLSFGGGTKVEIK", "mean, log10 nM": "1.18", "replicates with signal": "6/6"}
{"VL": "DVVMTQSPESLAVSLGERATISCKSSFSYLYESRNKNSVAWYQQKAGQPPKLLIYEASTREQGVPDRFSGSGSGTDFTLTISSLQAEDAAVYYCQQYHRLPLSFGGGTKVEIK", "mean, log10 nM": "2.11", "replicates with signal": "6/6"}
{"VL": "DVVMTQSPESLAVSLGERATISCNLQYLEENSLIGASAIAWYQQKAGQPPKLLIYDVNIAVMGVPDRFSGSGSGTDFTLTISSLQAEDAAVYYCQQYSRLPLAFGGGTKVEIK", "mean, log10 nM": "2.12", "replicates with signal": "3/6"}
{"VL": "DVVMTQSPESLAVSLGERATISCTISQVMNALTRHGNNVAWYQQKAGQPPKLLIYDLTEREDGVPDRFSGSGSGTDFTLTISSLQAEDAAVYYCQQYFRLPLSFGGGTKVEIK", "mean, log10 nM": "0.44", "replicates with signal": "6/6"}
{"VL": "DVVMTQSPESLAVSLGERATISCKSSQSVLYESRNKPSVAWYQQKAGQPPKLLIYWASTRMSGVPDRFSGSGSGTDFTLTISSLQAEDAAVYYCQQVHRLPLSFGGGTKVEIK", "mean, log10 nM": "2.63", "replicates with signal": "2/6"}

Excerpt, the final 2 entries:

VL	mean, log10 nM	replicates with signal
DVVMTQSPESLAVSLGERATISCTISQVMNALTRHGNNVAWYQQKAGQPPKLLIYDLTEREDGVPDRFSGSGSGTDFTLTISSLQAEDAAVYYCQQYFRLPLSFGGGTKVEIK	0.44	6/6
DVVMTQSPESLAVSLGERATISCKSSQSVLYESRNKPSVAWYQQKAGQPPKLLIYWASTRMSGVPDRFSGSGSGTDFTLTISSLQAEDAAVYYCQQVHRLPLSFGGGTKVEIK	2.63	2/6